Laboratory results reported in ChEMBL document CHEMBL3808280, “GroEL/ES inhibitors as potential antibiotics” (Bioorg Med Chem Lett, 2016).

Assay: Selectivity ratio of IC50 for human HSP60/HSP10 expressed in Escherichia coli Rosetta2(DE3) cells to IC50 for Escherichia coli GroEL/GroES using Escherichia coli GroEL expressed in Escherichia coli DH5alpha cells and Escherichia coli GroES expressed in Escherichia coli BL21(DE3) cells by denatured pig heart MDH refolding assay

Compared with Cn1c(=O)c(C(=O)Nc2ccncc2)c(O)c2ccccc21, O=C(Nc1ccc(Sc2nc3ccccc3s2)c(Cl)c1)c1cc(Br)cc(Br)c1O is lower in Ratio IC50: > 17 for the first, 4 for the second.

Work on Cc1ccc(S(=O)(=O)Nc2ccc(-c3nc4ccc(NS(=O)(=O)c5ccc(C)cc5)cc4[nH]3)cc2)cc1 yielded a Ratio IC50 of 12.
